Measured values as given in patent publication US20260382584A1, “TEAD- AND HER2-INHIBITOR COMBINATIONS FOR TREATING CANCER” (published 2026).

Columns and labels:
NCI-H2170 cells = assay: CellTiterGlo in vitro viability, non-small cell lung cancer cell line NCI-H2170 (6-day); details: 6-day treatment, alone
SNU-216 cells = assay: CellTiterGlo in vitro viability, gastric cancer cell line SNU-216 (6-day); details: 6-day treatment, alone
EFM192A cells = assay: CellTiterGlo in vitro viability, breast (HR+/HER2+) cancer cell line EFM192A; details: 6-day treatment, alone
[1] = system: NCI-N87 HER2-amplified gastric cancer xenograft tumors; assay: NCI-N87 HER2-amplified gastric cancer xenograft model in mice

SMILES	growth inhibition, single agent (NCI-H2170 cells)	growth inhibition, single agent (SNU-216 cells)	growth inhibition, single agent (EFM192A cells)	tumor response ([1]; Compound E p.o., hIgG1 and Trastuzumab i.p.)	mean tumor volume ([1]; day 26) [mm^3]
CNC[C@]1(c2ccccc2)Oc2cc(F)c(Cl)c(-c3c(C(N)=O)ccc(OC)c3F)c2[C@@H]1C	inhibited	inhibited	–	–	–
C=CC(=O)Nc1ccc(C)c(Oc2ccc(Cl)cc2)c1	not by Compound C alone (at least outside very high concentrations of Compound C)	not by Compound C alone (at least outside very high concentrations of Compound C)	–	–	–
C[C@]12CC[C@@H]3c4ccc(O)cc4C[C@@H](CCCCCCCCC[S+]([O-])CCCC(F)(F)C(F)(F)F)[C@H]3[C@@H]1CC[C@@H]2O (some centres unmarked)	–	–	no inhibition was achieved	–	–
CC(NC(=O)c1ccc2c(-c3ccc(C(F)(F)F)cc3)cccc2c1)c1ccccn1 (centres unmarked)	not by Compound B alone	not by Compound B alone	–	–	–
Cc1ccc(C2CC(Br)=NO2)cc1Oc1ccc(Cl)cc1 (centres unmarked)	not by Compound D (at least outside very high concentrations of Compound D)	not by Compound D (at least outside very high concentrations of Compound D)	–	–	–
C[C@H](O)COc1ccc(C(N)=O)c(-c2c(Cl)c(F)cc3c2[C@H](C)[C@@](CN[C@H]2CC[C@](C)(O)CC2)(c2ccccc2)O3)c1F	–	–	–	tumor stasis	279
